Only a part is listed here, and it is no random draw. Inconclusive results are not listed. The source made the active and inactive calls. Calls come from the whole dose curve; as a rule, active = well fitted activation curve with a large enough effect; inconclusive = small, poorly fitted or top-dose-only effect; inactive = flat fitted curve, though single readings scatter.
assay: qHTS assay to identify small molecule phospholipidosis (PLD) inducers; conditions: HepG2 phospholipidosis, LipidTOX Red imaging, 24 h; at 38.3 µM (top of the series) unless noted
From the text: National Center for Advancing Translational Sciences [NCATS]
Drug-induced Phospholipidosis (PLD) caused by cationic amphiphilic drugs is characterized by the appearance of unicentric or multicentric-lamellar bodies when viewed under electron microscope. Electron microscopy is the gold standard method for PLD detection, however, this method is time-consuming and labor intensive, making it unsuitable for evaluating a large set of compounds. A cell-based phospholipidosis assay has been developed using the LipidTox reagent in HepG2 cells and miniaturized into a 1536-well plate format. Drug induced phospholipid accumulation is stained with the LipidTox dyes in red color which then is determined using an automated high content screening system.
HepG2 cells are dispensed at 900 cells/3 uL/well into Collagen I-coated 1536-well black-wall/clear-bottom assay plates (Greiner Bio-One, Monroe, NC) using the Multidrop Combi 8 channel dispenser (Thermo Fisher, Waltham, MA, USA). The assay plates are incubated at 37 C for 4 hours to allow the cell attachment. 3 uL of 1:500 LipidTOX Red dye is added using the dispenser, and then 23 nL compounds are added via a Wako Pintool station (Wako Automation, San Diego, CA). Amiodarone, a known PLD inducer, was used as a positive control and DMSO was used as a negative control. The assay plates were then incubated at 37 C for 24 hours.
For fixations, 4 uL of 8% paraformaldehyde fixative solution containing 10 ug/mL Hoechst 33342 in Dulbecco's phosphate-buffered saline (DPBS) is added using a Kalypsys washer/dispenser (Kalypsys, San Diego, CA, USA). After incubation at room temperature for 30 min, the assay plates are washed once with DPBS using a Kalypsys washer/dispenser. The assay plates are then sealed and stored at 4 C before imaging. The fluorescence intensities (595 nm excitation, 615 nm emission for LipidTOX; 352 nm excitation, 461 nm emission for Hoechst 33342) are measured using an ImageXpress Micro Widefield High Content Screening System (Molecular Devices, Sunnyvale, CA, USA) with a 20x Plan Fluor objective. Images are acquired for one site in each well and analyzed with the MetaXpress software (Molecular Devices) using the Transfluor module. Several algorithmic outputs, such as pit count per well, pit count per cell, pit integrated intensity per well, and pit integrated intensity per cell, are used for quantitative image analysis for PLD.
% is set by controls: 0 for no effect and ±100 for the full control effect.

Row | SMILES | PLD induction
1 | O=C(OC1CN2CCC1CC2)c1ccccc1 (stereo unspecified) | inactive: -0.324%
2 | CN(C(=O)Cc1ccccc1)[C@H]1CC[C@@]2(CCCO2)C[C@@H]1N1CCCC1 | inactive: 0.465%
3 | Cc1cc([N+](=O)[O-])cc([N+](=O)[O-])c1O | inactive: -6.61% [at 78.4 µM]
4 | CCNC(C)Cc1ccc2c(c1)OCO2 (stereo unspecified) | inactive: -3.31% [at 78.4 µM]
5 | NC(=O)Nc1ccc([As](=O)(O)O)cc1 | inactive: -0.517%
6 | CN(C(=O)Cc1ccc(Cl)c(Cl)c1)[C@H]1CC[C@@]2(CCCO2)C[C@@H]1N1CCCC1 | inactive: -2.71%

Reference: PubChem BioAssay AID1259344 (Tox21, 2017)
